What was measured:
[1] = biological target: Amine oxidase [flavin-containing] B (Homo sapiens, UniProt P27338); assay type: cell-based, BTI-TN-5B1-4
Homo sapiens = species: Homo sapiens; experiment: Selectivity index, ratio of IC50 for human recombinant MAOA to IC50 for human recombinant MAOB

The chains behind the UniProt entries cited, without tags or fusion partners.
UniProt P27338, whole entry: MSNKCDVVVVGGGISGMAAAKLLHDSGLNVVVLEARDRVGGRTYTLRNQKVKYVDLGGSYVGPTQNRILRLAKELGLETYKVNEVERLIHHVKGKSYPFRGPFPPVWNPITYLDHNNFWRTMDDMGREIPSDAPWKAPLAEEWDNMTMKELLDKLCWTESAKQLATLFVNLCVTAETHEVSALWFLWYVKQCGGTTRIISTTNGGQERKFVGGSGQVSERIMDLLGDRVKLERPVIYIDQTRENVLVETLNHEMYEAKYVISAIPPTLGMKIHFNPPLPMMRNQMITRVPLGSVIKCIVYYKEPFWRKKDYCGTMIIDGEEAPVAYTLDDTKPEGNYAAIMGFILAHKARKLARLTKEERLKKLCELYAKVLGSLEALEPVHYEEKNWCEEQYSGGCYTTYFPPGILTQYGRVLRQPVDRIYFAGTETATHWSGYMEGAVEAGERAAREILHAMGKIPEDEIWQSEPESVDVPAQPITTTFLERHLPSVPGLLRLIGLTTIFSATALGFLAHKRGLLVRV

SMILES: O=C(Nc1ccc(O)cc1)c1cc2ccccc2oc1=O
- IC50 [1]: 0.8 µM
- Ratio IC50 (Homo sapiens): > 125
